The results in this text go back to US9156810B2, “Treatment of inflammatory bowel disease” (ALLERGAN, INC., priority 2003, dated 2015).

Chains of the proteins cited; added tags and fusions are not shown. Lines headed by an entry give the natural chain unless they say otherwise; changes in a name come on top.
UniProt P35408: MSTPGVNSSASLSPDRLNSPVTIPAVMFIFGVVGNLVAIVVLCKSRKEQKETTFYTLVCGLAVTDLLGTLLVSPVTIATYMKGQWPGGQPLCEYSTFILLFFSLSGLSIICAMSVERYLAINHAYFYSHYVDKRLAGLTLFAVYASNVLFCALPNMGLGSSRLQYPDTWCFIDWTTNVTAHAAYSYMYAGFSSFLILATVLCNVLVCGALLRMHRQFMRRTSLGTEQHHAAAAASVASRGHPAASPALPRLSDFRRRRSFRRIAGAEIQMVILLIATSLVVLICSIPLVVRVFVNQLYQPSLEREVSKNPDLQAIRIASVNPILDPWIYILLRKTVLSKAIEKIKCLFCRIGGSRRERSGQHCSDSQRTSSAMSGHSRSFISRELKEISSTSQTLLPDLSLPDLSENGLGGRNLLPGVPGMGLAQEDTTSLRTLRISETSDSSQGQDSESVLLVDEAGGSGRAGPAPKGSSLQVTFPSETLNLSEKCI

The target of experiment [1] is T1, hEP4 (Homo sapiens (Human), UniProt P35408). Put plainly: Radioligand binding ([3H]PGE2), HEK-293 cell membranes expressing EP4 receptor. As to conditions: top number in Table 2. The protocol:
HEK-293 cells stably expressing the human or feline FP receptor, or EP1, EP2, EP3, or EP4 receptors were washed with TME buffer, scraped from the bottom of the flasks, and homogenized for 30 sec using a Brinkman PT 10/35 polytron. TME buffer was added to achieve a final 40 ml volume in the centrifuge tubes (the composition of TME is 100 mM TRIS base, 20 mM MgCl2, […]; 10N HCl is added to achieve a pH of 7.4).
The cell homogenate was centrifuged at 19000 r.p.m. for 20 min at 4° C. using a Beckman Ti-60 rotor. The resultant pellet was resuspended in TME buffer to give a final 1 mg/ml protein concentration, as determined by Biorad assay. Radioligand binding competition assays vs. [^3H-]17-phenyl PGF2α, (5 nM) were performed in a 100 μl volume for 60 min. Binding reactions were started by adding plasma membrane fraction. The reaction was terminated by the addition of 4 ml ice-cold TRIS-HCl buffer and rapid filtration through glass fiber GF/B filters using a Brandel cell harvester. The filters were washed 3 times with ice-cold buffer and oven dried for one hour. Non-specific binding was determined with 10 uM unlabeled 17-phenyl PGF2α.
[^3H-] PGE2 (5 nM; specific activity 180 Ci mmol) was used as the radioligand for EP receptors. […] Non-specific binding determined with 10^−5M of unlabeled PGE2.

The target of experiment [2] is T1, hEP4. Nature of the experiment: FLIPR calcium signal, HEK-293(EBNA) cells expressing hEP4/Gqs5. The experiment is classed as cell-based. Conditions: bottom number in Table 2. The protocol: HEK-293(EBNA) cells, stably expressing one type or subtype of recombinant human prostaglandin receptors (prostaglandin receptors expressed: hDP/Gqs5; hEP1; hEP2/Gqs5; hEP3A/Gqi5; hEP4/Gqs5; hFP; hIP; hTP), were cultured in 100 mm culture dishes in high-glucose DMEM medium containing 10% fetal bovine serum, 2 mM 1-glutamine, 250 μg/ml geneticin (G418) and 200 μg/ml hygromycin B as selection markers, and 100 units/ml penicillin G, 100 μg/m streptomycin and 0.25 μg/m amphotericin B.
Cells were seeded at a density of 5×10^4 cells per well in Biocoat® Poly-D-lysine-coated black-wall, clear-bottom 96-well plates (Becton-Dickinson) and allowed to attach overnight in an incubator at 37° C. Cells were then washed two times with HBSS-HEPES buffer (Hanks Balanced Salt Solution without bicarbonate and phenol red, 20 mM HEPES, pH 7.4) using a Denley Cellwash plate washer (Labsystems). […]
Cells were excited with an Argon laser at 488 nm, and emission was measured through a 510-570 nm bandwidth emission filter (FLIPR™, Molecular Devices, Sunnyvale, Calif.). […] The peak increase in fluorescence intensity was recorded for each well. […] The peak fluorescence change in each drug-containing well was then expressed relative to the controls. […]

For the compound `COC(=O)CCCC#CC[C@H]1C(=O)C(C)(C)[C@@H](O)[C@@H]1/C=C/C(O)CCc1sc2ccccc2c1Cl` (single isomer, unassigned) [Compound 34], the hEP4 radioligand binding IC50 in experiment [1] is above 10 µM. In addition, in experiment [2], the “hEP4 functional EC50” value is recorded as above 10K.
